Values joined by “and” are separate entries in the source; they are usually repeats but may differ in a detail not shown here. Identical values can stand only once.

Amino acid sequences for entries named in this document (tags omitted).
UniProt P27338, whole entry: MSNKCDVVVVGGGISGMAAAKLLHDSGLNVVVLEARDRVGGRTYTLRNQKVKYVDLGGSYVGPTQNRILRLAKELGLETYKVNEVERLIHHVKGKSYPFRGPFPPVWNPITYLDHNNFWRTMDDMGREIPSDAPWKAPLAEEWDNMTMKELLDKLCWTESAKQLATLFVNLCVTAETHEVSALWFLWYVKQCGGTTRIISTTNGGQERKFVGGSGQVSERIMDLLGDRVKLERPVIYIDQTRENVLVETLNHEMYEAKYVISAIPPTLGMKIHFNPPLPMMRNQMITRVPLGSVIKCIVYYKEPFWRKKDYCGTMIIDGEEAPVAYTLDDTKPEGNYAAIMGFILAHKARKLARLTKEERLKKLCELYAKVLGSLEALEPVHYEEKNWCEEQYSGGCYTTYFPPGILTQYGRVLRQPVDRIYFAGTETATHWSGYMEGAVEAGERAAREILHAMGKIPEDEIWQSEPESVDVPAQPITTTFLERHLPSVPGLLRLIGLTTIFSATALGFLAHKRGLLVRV

The values that follow come from article PMC7345905, “Microbial Metabolite Urolithin B Inhibits Recombinant Human Monoamine Oxidase A Enzyme” (Metabolites, 2020).

In the experiment the target is T1, human recombinant MAO-B (Homo sapiens, UniProt P27338).
T1 construct: purchased Sigma-Aldrich
The experiment can be described thus: MAO-Glo MAO-B inhibition assay. Type of experiment: biochemical. The method, then: MAO inhibition assays were performed using a MAO-Glo™ Assay kit (Promega) according to the manufacturer’s instructions. Briefly, 1 µg of human recombinant MAO-A and MAO-B enzyme isoforms were incubated with 160 and 16 µM of MAO substrates, respectively. […] The enzyme reaction was quenched by the addition of a luciferin detection reagent. […] An equal volume of dimethyl sulfoxide (0.1%) was added to the enzyme assay as a control. After 1 h of incubation, the luminescence was measured with a multimode microplate reader (Synergy HT, BioTek, Winooski, VT, USA) to determine the MAO enzyme activities. Initially, the inhibition potential of all the test compounds was evaluated at a concentration of 100 μM. The control reaction (with no inhibitor) with vehicle (DMSO 0.1%) was set at 100% activity. To determine IC50 of the test compounds, the dose dependent enzyme assays were performed. […] The type of enzyme inhibition was determined using variable concentrations of MAO-A substrate (10–360 µM) and MAO-B substrate (2–64 µM) for the respective enzyme assay. […] A Lineweaver–Burk double reciprocal plot was generated, and the mode of inhibition was determined by visual examination of the plot. The slope of the reciprocal plots was plotted against the inhibitor concentrations and determined the x-axis intercept that represented the inhibitor constant, Ki value.

Consider deprenyl [reference compound], for which the “MAO-B enzyme assay, Percent of control” value is 23.6257% of control and 26.4174% of control and 28.6413% of control. The “inhibition of MAO-B enzyme activity” value (5 µM) is on record as “more than 60%”.
